Laboratory results as given in ChEMBL document CHEMBL2331505, “Synthesis of quinoline derivatives: discovery of a potent and selective phosphodiesterase 5 inhibitor for the treatment of Alzheimer's disease” (Eur J Med Chem, 2013).

Chains of the proteins cited; added tags and fusions are not shown. Lines headed by an entry give the natural chain unless they say otherwise; changes in a name come on top.
UniProt O00408, whole entry: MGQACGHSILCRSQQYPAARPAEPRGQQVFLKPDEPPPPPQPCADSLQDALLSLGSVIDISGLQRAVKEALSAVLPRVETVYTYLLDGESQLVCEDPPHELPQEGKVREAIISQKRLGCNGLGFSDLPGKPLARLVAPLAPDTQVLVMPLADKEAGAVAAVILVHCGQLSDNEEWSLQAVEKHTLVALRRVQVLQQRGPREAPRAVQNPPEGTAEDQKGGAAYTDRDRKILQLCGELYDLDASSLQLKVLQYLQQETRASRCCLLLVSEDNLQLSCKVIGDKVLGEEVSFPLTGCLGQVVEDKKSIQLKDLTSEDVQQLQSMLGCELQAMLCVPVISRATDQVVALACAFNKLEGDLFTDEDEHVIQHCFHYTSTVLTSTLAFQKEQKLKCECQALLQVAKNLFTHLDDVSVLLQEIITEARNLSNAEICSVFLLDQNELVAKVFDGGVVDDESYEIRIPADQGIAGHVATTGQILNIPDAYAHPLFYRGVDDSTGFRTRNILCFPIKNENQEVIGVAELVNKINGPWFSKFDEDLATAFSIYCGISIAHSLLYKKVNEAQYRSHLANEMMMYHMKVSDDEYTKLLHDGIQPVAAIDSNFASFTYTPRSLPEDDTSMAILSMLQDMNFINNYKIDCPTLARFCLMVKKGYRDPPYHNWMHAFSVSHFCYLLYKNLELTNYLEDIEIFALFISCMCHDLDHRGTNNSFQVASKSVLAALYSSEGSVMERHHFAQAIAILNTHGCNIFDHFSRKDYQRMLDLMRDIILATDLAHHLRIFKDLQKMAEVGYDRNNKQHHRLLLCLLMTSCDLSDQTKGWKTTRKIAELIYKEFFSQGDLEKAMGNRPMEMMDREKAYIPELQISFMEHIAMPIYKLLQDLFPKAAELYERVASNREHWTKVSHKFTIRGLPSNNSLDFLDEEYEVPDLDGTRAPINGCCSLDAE
UniProt P27815: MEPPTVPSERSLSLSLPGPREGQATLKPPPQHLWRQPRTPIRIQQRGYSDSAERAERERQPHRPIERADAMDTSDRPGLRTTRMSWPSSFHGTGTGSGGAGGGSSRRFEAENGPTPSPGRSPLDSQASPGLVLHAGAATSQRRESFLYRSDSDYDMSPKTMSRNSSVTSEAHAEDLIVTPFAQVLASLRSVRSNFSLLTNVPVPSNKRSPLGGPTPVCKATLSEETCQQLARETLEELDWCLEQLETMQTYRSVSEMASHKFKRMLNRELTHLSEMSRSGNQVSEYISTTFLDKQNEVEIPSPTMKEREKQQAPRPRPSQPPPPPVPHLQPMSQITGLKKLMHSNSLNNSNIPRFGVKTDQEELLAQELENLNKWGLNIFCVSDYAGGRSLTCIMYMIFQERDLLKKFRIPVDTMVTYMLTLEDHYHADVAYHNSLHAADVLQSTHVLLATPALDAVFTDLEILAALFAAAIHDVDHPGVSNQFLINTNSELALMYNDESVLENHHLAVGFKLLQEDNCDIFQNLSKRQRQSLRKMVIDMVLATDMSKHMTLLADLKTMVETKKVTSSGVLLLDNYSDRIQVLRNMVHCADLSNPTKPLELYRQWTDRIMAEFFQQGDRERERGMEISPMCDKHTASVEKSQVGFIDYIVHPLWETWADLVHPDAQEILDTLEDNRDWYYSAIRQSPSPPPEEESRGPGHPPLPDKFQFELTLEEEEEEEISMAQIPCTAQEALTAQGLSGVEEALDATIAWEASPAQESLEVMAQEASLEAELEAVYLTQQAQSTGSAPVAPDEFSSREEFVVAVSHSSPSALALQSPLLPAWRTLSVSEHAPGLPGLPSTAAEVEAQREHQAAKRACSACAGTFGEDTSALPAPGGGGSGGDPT
UniProt Q08499: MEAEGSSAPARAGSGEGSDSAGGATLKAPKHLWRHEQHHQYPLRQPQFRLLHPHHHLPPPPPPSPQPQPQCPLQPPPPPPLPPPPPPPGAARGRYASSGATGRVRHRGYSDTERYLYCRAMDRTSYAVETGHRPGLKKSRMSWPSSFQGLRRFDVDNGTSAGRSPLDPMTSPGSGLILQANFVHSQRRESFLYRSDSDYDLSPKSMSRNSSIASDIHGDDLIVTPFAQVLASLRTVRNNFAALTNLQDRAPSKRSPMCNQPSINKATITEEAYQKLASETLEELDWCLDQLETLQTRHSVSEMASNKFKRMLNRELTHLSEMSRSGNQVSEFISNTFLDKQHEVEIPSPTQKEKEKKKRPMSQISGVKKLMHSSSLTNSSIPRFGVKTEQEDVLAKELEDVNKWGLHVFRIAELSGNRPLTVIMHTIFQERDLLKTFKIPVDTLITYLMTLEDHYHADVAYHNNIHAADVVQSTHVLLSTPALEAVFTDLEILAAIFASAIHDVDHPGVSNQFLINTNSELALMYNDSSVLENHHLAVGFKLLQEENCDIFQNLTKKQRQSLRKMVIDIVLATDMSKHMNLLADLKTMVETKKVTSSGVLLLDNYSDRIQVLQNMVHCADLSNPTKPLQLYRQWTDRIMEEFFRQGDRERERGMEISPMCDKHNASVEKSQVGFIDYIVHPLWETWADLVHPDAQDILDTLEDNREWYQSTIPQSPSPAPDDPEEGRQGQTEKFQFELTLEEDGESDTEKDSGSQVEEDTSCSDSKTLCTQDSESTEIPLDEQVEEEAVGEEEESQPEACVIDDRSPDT
UniProt Q07343: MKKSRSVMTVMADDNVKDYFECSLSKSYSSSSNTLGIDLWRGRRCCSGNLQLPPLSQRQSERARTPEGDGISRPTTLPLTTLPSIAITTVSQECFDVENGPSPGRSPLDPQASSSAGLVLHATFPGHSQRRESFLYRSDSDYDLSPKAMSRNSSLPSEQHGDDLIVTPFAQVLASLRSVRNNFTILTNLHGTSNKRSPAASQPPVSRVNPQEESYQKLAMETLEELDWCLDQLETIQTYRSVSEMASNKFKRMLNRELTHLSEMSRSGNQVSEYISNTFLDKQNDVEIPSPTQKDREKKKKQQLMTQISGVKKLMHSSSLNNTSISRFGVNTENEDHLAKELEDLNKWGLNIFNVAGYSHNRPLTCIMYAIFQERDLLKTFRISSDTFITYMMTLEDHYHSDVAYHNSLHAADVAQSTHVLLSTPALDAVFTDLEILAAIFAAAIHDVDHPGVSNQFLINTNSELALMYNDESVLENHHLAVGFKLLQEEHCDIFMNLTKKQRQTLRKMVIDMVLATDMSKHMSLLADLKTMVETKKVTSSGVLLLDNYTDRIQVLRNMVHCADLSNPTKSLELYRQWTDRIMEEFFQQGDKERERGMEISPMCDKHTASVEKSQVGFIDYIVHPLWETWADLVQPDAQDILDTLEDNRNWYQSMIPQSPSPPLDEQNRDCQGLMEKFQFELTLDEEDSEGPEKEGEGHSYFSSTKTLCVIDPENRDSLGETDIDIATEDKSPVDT
UniProt Q08493: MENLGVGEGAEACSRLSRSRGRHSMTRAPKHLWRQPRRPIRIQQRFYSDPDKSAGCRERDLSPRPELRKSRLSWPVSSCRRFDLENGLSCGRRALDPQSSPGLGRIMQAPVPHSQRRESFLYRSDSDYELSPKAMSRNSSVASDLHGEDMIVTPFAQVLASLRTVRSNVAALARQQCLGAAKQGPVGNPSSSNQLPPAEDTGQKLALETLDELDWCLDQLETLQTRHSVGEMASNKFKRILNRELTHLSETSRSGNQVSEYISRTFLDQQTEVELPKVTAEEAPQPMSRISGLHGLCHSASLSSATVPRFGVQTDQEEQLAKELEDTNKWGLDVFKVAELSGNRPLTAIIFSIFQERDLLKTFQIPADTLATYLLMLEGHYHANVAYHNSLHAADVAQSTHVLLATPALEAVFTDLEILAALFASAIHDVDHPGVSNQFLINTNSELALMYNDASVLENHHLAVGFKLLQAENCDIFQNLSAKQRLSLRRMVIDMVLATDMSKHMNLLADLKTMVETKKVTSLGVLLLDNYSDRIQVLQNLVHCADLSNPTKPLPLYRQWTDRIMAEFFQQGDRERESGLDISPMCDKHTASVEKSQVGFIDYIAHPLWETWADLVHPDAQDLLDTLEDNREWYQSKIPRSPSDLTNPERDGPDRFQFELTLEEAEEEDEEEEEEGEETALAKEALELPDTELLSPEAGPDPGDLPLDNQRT

Assays:
[1] = molecular target: cGMP-dependent 3',5'-cyclic phosphodiesterase (Homo sapiens, UniProt O00408); test: Inhibition of PDE2 (unknown origin) using FAM-cGMP and FAM-cAMP as substrate after 60 mins by fluorescence assay
Outline: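 PDE enzyme reaction run 60 min at room temperature in PDE assay buffer with 100 nM FAM-cGMP or FAM-cAMP substrate, 0.125 ng PDE and test compound. A 1:100 diluted binding agent was then added.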

Phosphodiesterase 4 = Phosphodiesterase 4 (Homo sapiens, UniProt P27815+Q08499+Q07343+Q08493); test: Inhibition of PDE4 (unknown origin) using FAM-cAMP as substrate after 60 mins by fluorescence assay; assay type: protein assay

Compound `CCCc1nn(C)c2c(=O)[nH]c(-c3cc(S(=O)(=O)N4CCN(C)CC4)ccc3OCC)nc12` has an IC50 [1] greater than 10 µM.

Compound `CN1CC(=O)N2[C@H](c3ccc4c(c3)OCO4)c3[nH]c4ccccc4c3C[C@@H]2C1=O` has an IC50 (Phosphodiesterase 4) of 9.2 µM.
